The values that follow come from US20240415985A1, “PHOTOCLEAVABLE PRODRUG-BASED NANOMEDICINE FOR IN-SITU MONITORABLE CANCER THERAPY” (The University of Hong Kong, priority 2021, published 2024).

In the series the test system is human umbilical vein endothelial cells (HUVECs). Briefly: Cytotoxicity in dark, biocompatibility evaluation. In kind it is cell-based. The following applies: 24 h, up to 100 μM. On the procedure: HCT116 cells were cultured in RPMI-1640 (Gibco) supplemented with 10% FBS (Gibco) and 100 units/mL antibiotics (Penicillin-Streptomycin, Gibco) at 37° C. in a 5% CO2 humidified atmosphere. HUVECs cells were cultured in DMEM (Gibco) supplemented with 10% FBS (Gibco) and 100 units/mL antibiotics (Penicillin-Streptomycin, Gibco) at 37° C. in a 5% CO2 humidified atmosphere.
The cell viability was evaluated by MTT assay. HCT116 cells were incubated in 96-well microliter plates for 24 h. Then, gradient concentrations of BC prodrug or IR783/BC NPs in RPMI 1640 culture medium were added to the cells. After 6 h incubation, the residual BC or IR783/BC NPs were removed by fresh RPMI 1640 culture medium (100 μL). Then, the cells were irradiated by 530 nm LED light (50 mW/cm^2, 5 min) or incubated at room temperature without light. After another incubation for 24 h, MTT solution (10 μL, 10 mg/mL) was added to the cells to cultivate for 3 h. Next, the cell culture medium was discarded, and DMSO (100 μL) was then added. The absorbance was measured by a multi-mode microplate reader at 490 nm, 570 nm and 630 nm.

Turning to boron-dipyrromethene-chlorambucil [BC], the cytotoxicity in dark entry is reported as “Negligible cytotoxicity”.
